Measured values as given in patent publication US12123051B2, “Nucleic acid ratio determination” (priority 2017, dated 2024).

Test system: Chlamydia trachomatis (serovar D) in HEp-2 cells
Assay: VITA PCR (triplex RT-PCR, GAT1/2 and NED), Treatment Protocol A
Format: cell-based
Settings: <MIC (0.008 μg/mL), added 4 h PI, harvested 44 h PI; TR 2

## CC[C@H]1OC(=O)[C@H](C)[C@@H](O[C@H]2C[C@@](C)(OC)[C@@H](O)[C@H](C)O2)[C@H](C)[C@@H](O[C@@H]2O[C@H](C)C[C@H](N(C)C)[C@H]2O)[C@](C)(O)C[C@@H](C)CN(C)[C@H](C)[C@@H](O)[C@]1(C)O [Azithromycin]
  VITA Index: 3.66
